Results on three molecules are retold here after ChEMBL document CHEMBL5360519, “Chemical similarities and differences among inhibitors of nitric oxide synthase, arginase and dimethylarginine dimethylaminohydrolase-1: Implications for the design of novel enzyme inhibitors modulating the nitric oxide pathway” (Bioorg Med Chem, 2022).

By UniProt entry, the sequences of proteins in these tests, tags left out.
UniProt P29475, whole entry: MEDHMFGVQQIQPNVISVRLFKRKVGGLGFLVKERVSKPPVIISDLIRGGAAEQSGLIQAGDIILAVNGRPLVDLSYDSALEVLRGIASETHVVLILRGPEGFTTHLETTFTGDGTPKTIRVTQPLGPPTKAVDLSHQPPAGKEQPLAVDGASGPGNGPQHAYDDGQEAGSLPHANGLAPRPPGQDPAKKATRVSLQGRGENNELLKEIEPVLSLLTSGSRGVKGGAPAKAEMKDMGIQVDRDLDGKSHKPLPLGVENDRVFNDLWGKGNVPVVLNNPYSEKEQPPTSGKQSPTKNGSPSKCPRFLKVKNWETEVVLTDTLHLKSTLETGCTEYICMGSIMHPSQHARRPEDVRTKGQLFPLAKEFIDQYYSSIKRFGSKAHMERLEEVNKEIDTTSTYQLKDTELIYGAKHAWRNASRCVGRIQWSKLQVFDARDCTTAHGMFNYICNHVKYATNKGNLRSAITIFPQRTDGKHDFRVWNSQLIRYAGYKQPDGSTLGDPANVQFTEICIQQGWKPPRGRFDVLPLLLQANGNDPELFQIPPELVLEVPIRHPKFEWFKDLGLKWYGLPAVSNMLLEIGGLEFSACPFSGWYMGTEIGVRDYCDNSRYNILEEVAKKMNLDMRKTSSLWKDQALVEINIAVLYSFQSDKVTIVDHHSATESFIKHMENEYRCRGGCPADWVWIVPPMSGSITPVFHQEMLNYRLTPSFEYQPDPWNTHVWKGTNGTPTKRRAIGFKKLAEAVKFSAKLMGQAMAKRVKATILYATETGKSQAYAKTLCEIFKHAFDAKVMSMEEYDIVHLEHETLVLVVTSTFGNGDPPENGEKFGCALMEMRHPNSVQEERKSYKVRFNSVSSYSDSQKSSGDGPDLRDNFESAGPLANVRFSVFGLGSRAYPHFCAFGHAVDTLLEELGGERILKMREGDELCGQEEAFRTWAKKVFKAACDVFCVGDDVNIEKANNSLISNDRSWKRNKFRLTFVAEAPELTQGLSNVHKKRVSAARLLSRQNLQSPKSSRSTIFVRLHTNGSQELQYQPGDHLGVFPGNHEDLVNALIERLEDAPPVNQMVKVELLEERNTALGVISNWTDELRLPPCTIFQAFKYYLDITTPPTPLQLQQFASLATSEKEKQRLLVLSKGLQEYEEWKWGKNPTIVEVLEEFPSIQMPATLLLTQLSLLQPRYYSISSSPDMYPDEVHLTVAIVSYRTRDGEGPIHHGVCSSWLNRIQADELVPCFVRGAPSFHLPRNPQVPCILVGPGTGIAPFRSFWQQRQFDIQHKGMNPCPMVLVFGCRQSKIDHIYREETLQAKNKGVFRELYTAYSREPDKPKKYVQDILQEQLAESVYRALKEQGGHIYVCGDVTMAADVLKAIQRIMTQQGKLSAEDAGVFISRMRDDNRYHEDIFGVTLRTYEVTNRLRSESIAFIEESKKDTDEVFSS
UniProt P29476, whole entry: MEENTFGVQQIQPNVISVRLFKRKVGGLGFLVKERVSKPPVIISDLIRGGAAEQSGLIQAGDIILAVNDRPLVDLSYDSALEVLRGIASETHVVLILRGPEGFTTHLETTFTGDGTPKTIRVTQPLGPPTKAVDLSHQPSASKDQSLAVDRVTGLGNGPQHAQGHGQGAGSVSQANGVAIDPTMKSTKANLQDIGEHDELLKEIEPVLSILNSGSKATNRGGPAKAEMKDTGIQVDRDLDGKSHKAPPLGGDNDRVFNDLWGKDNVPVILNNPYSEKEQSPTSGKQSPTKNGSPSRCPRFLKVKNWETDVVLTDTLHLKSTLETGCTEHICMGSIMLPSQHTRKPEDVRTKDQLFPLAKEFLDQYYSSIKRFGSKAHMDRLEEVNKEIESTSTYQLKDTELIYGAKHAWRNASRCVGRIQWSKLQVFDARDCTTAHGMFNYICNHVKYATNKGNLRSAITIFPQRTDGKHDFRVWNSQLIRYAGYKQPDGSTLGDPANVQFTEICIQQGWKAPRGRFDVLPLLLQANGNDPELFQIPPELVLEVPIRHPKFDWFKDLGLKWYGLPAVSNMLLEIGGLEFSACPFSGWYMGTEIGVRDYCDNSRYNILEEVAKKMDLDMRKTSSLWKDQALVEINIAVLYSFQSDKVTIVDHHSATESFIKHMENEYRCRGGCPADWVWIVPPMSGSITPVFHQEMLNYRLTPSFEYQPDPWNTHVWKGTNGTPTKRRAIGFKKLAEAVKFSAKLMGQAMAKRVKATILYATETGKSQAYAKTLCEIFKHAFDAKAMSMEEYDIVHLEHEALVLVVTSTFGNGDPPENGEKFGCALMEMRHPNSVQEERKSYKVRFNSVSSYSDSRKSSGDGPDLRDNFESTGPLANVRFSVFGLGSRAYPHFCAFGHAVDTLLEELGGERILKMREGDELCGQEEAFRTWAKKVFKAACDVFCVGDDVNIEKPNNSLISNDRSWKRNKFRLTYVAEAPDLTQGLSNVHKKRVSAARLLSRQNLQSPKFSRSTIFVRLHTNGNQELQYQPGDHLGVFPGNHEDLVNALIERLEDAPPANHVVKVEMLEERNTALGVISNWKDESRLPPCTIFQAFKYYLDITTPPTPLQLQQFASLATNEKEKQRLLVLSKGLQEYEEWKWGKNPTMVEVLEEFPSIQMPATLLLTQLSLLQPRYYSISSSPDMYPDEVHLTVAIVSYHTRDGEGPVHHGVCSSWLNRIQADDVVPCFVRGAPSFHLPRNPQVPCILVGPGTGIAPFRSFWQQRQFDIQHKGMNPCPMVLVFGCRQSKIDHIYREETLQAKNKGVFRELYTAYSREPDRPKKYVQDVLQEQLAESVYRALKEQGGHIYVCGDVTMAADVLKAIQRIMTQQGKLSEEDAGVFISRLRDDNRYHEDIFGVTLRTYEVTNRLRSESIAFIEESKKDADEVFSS

For assay [1], the target named is T1, Nitric oxide synthase 3 (Mus musculus, UniProt P70313).
T1 sequence (P70313 whole entry): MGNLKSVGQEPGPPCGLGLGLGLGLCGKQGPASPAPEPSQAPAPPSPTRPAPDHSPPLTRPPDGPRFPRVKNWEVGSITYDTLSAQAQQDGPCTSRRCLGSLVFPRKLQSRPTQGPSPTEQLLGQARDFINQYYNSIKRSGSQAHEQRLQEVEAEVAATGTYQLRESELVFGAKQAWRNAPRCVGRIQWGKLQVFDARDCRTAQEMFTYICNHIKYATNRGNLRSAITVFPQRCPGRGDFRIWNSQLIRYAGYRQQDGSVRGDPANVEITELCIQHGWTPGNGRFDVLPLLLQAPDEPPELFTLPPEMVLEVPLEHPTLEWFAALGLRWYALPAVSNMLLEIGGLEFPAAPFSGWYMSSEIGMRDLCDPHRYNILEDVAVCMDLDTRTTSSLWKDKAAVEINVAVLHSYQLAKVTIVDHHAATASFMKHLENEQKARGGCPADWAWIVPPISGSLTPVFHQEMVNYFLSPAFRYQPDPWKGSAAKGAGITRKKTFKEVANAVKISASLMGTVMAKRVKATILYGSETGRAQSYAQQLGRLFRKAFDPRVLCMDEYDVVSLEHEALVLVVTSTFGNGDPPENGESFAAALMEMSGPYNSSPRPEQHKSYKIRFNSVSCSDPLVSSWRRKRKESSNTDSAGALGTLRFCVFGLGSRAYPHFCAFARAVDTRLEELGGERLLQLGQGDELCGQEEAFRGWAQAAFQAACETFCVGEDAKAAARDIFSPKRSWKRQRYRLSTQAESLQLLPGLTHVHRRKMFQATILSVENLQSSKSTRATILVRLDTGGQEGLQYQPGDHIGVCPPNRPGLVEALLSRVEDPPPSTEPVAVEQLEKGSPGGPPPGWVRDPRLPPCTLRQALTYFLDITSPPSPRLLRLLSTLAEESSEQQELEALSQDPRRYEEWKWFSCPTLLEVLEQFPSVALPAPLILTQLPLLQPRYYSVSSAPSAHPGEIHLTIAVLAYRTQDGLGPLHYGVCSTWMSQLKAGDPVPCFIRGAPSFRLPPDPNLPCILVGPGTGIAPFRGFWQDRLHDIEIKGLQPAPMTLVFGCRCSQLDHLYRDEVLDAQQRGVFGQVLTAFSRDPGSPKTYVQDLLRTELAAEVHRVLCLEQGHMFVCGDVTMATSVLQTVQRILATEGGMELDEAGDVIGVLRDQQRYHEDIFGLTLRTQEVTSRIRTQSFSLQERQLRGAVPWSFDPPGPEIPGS
Description: Inhibition of recombinant mouse eNOS overexpressed in Escherichia coli assessed as inhibition constant.

The target of assay [2] is T2, Nitric oxide synthase, inducible (Mus musculus, UniProt P29477).
T2 sequence (P29477 whole entry): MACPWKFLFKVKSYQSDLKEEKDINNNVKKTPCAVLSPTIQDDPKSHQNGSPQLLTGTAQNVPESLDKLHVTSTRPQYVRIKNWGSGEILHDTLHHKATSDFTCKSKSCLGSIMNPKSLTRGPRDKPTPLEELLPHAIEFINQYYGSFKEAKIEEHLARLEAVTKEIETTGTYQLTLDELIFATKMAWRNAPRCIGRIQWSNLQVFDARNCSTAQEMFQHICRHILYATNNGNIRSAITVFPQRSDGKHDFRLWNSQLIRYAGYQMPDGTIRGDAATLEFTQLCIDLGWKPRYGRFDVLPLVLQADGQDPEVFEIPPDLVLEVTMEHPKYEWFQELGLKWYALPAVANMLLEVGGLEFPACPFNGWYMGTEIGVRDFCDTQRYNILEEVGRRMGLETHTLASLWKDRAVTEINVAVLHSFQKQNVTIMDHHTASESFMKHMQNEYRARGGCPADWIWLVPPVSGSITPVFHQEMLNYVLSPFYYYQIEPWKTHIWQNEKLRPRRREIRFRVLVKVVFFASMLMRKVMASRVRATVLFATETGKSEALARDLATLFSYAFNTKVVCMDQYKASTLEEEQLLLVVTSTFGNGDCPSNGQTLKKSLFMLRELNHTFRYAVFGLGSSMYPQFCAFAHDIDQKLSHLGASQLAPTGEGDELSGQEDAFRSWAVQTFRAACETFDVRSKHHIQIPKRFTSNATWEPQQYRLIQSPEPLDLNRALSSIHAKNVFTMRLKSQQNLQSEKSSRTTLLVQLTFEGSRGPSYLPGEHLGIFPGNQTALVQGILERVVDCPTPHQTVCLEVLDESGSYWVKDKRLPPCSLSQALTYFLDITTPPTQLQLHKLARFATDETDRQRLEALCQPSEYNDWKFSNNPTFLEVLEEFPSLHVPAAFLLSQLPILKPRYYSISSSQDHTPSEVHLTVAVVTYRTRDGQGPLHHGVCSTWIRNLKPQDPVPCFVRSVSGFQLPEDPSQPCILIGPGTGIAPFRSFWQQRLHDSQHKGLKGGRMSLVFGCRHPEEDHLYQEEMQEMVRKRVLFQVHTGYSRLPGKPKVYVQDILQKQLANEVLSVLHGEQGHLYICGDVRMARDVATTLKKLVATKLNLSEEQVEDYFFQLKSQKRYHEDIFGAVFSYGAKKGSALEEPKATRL
Description: Inhibition of mouse iNOS overexpressed in Escherichia coli assessed as inhibition constant.

Assay [3] addresses Nitric oxide synthase 1 (Homo sapiens, UniProt P29475). Description: Inhibition of human nNOS assessed as inhibition constant.
Assay [4] deals with Nitric oxide synthase 1 (Rattus norvegicus, UniProt P29476). Description: Inhibition of rat nNOS.

As for `Cc1cc(N)nc(C[C@H]2CNC[C@H]2NCCNCCc2cccc(F)c2)c1`, the Ki in assay [1] was 26.4 µM.
For `Cc1cc(N)nc(C[C@@H]2CNC[C@@H]2NCCNCCc2cccc(F)c2)c1`, the Ki in assay [1] came to 20.3 µM.
As for `CC(=N)NCCC[C@H](N)C(=O)O` [L-NIO], the Ki in assay [2] and in assay [3] was 13.7 µM throughout. The molecule further came in with an IC50 in assay [4] of 0.8 µM.
